These results are taken from patent US20200283532A1, “TUMOUR-TARGETING PEPTIDE VARIANTS” (Cancer Research Technology Limited, priority 2017, published 2020).

One data set relates to A375Pβ6 cells. The format is cell-based. As for the experimental part:
Cells were trypsinised and resuspended into DMEM (serum-free media) to prepare a cell suspension of 4×10^6 cells/ml. From this point on everything was kept on ice. 50 μl of cell suspension were aliquoted into each flow tube. Peptides were diluted in ice-cold serum-free media to 200 nM giving the final concentration of 100 nM when 50 μl was added to the cell samples. The peptides were left on ice for 15 minutes then washed twice with flow media and centrifuged for 3 minutes at 1200 rpm in between each wash step. Mouse anti-biotin (50 μl at 1:200) was added to each sample for 15 minutes, then wash steps were repeated. […] Samples were examined on an Imagestream X Mark II (Amnis, Merck) Imagestream images were assessed for internalisation compared with the 0 minute samples using on board software. […]
Cells were prepared as above except that no detergent was added prior to detecting the biotin with antibodies. Samples were analysed on a FACScalibur (Bekton-Dickinson) cytometer.
To assess ability to be internalized by cells at 37° C. […] Imagestream® takes a fluorescence image of each cell (FIG. 2C) enabling image analysis of the fluorescence on the surface versus the intracellular compartment. […] For flow cytometry we monitored the loss of surface expression as the peptides were internalized.

Data set [1] is described as follows: Biodistribution of 111In-DTPA labelled peptides in tumour-bearing mice. The format is in vivo, female CD1 Nu/Nu mice. To be noted: female, CD1 Nu/Nu, mouse, 0.3 MBq per animal, total radioactivity, 111In-DTPA peptide iv, mean ± SEM. As for the experimental part:
(§1) 2×10^6 cells in 100 μl were injected subcutaneously into the shoulders of female CD1 Nu/Nu mice. Tumours were grown subcutaneously on the left (A375Puro) and on the right (A375136) shoulder over two weeks. Once tumours had grown to approximately 5 mm diameter peptides were radiolabelled with Indium-111, and analysed by Radio-HPLC to determine labelling efficiency. The labelled peptides were diluted in sterile PBS/BSA and were dosed to give 0.3MBq per animal. Mice were then intravenously (tail-vein) injected with the radiolabelled peptide and are culled after 1 hour. Blood, organs and tumours were removed, weighed and residual activity was measured on a gamma counter (LKB Compugamma) the next day. Data were expressed as % Injected Dose/g tissue (% ID/g).
(§2) Immunocompromised mice (n=3-5) bearing A375Ppuro and A37546 tumours on opposite shoulders were given intravenous (iv) injections of […] of radiolabelled peptides 22-26 then killed 1 h later. Major organs and blood were collected immediately, weighed, and radioactivity determined. The data in Table 3 show the behaviour of the five DTPA-conjugated peptides tested; data are expressed as mean % injected dose/g tissue.

Data set [2] relates to A375Pβ6 (αvβ6) and A375Puro (control) xenografts. Described as above. To be noted: 111In-DTPA peptide iv, 1 h; mean ± SEM. The format is in vivo, female CD1 Nu/Nu mice. As for the experimental part:
as §1, §2

Read-outs that look alike come from different tables or passages of the source.

As to `CC(C)C[C@H](NC(=O)[C@H](CC(=O)O)NC(=O)CNC(=O)[C@H](CCCNC(=N)N)NC(=O)[C@H](CC(C)C)NC(=O)[C@H](CC(N)=O)NC(=O)[C@@H]1CCCN1C(=O)[C@@H](NC(=O)[C@H](CCCCNC(=O)CCCC[C@@H]1SC[C@@H]2NC(=O)N[C@@H]21)NC(=O)[C@H](CC(N)=O)NC(=O)CN(CCN(CCN(CC(=O)O)CC(=O)O)CC(=O)O)CC(=O)O)C(C)C)C(=O)N[C@@H](CCC(N)=O)C(=O)N[C@H](C(=O)N[C@@H](CC(C)C)C(=O)N[C@@H](C)C(=O)N[C@@H](CCC(N)=O)C(=O)N[C@@H](CCCCN)C(=O)N[C@H](C(=O)N[C@@H](C)C(=O)N[C@@H](CCCNC(=N)N)C(=O)N[C@H](C(N)=O)[C@@H](C)O)C(C)C)C(C)C` [Peptide 24], the “Relative Activity (A × B)” value with A375Pβ6 cells stood at 1.17. In addition, the tissue uptake at 1 h was found to be 0.66 ± 0.02 %ID/g in data set [1] (heart, 1 h, read-out: Bio-distribution, Heart); 3.4 ± 0.29 %ID/g in data set [1] (intestines, 1 h, read-out: Bio-distribution, Intestines); 131 ± 12 %ID/g in data set [1] (kidney, 1 h, read-out: Bio-distribution, Kidney); 0.3 ± 0.05 %ID/g in data set [1] (liver, 1 h, read-out: Bio-distribution, Liver); 3.62 ± 0.3 %ID/g in data set [1] (lung, 1 h, read-out: Bio-distribution, Lung); 1.1 ± 0.05 %ID/g in data set [1] (muscle, 1 h, read-out: Bio-distribution, Muscle). Further, the tissue uptake at 1 h in data set [1] (pancreas, 1 h, read-out: Bio-distribution, Pancreas) was found to be 0.5 ± 0.03 %ID/g; in data set [1] (spleen, 1 h, read-out: Bio-distribution, Spleen) it was 0.2 ± 0.01 %ID/g; in data set [1] (stomach, 1 h, read-out: Bio-distribution, Stomach), 4.6 ± 0.63 %ID/g; in data set [1] (tail, 1 h, read-out: Bio-distribution, Tail) it was 1 ± 0.19 %ID/g; in data set [1] (tumour (A375Puro control xenograft), A375Puro xenograft, mice culled after 1 h, read-out: Bio-distribution, Tumour (Control)), 0.4 ± 0.04 %ID/g; in data set [1] (tumour (A375Pβ6 xenograft, αvβ6-positive), A375Pβ6 xenograft, mice culled after 1 h, read-out: Bio-distribution, Tumour (αvβ6)), 3.8 ± 0.31 %ID/g. Moreover, the tissue uptake at 1 h in data set [1] (whole blood, 1 h, read-out: Bio-distribution, Blood) was determined as 0.3 ± 0.04 %ID/g. In data set [2], the “Bio-distribution, Kidney” value is “retention far greater than peptide 22”.
